The values that follow come from PubChem BioAssay AID1259332 (Broad Institute, 2017).

The test deals with B cell line, CD40 signaling inhibition reporter. Nature of the test: CD40 pathway inhibition in B cells – B cell lineage, dose response (AID 1259332).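 Also: cells stimulated with CD40 ligand tCD40L.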

Take `CCC1=CC2Cc3nc4ccc(Cl)cc4c(N)c3C(C1)C2` (stereo unspecified): the AC50 is 9.51 µM.

Broadly, the AC50 is the concentration giving half of the maximal activity seen.
